From patent US20240174649A1, “CULLIN-RING E3 UBIQUITIN LIGASE 4 INHIBITOR COMPOUNDS AND METHODS OF THEIR USE” (ICAHN SCHOOL OF MEDICINE AT MOUNT SINAI, priority 2021, published 2024)

By UniProt entry, the sequences of proteins in these tests, tags left out.
UniProt Q13619, whole entry: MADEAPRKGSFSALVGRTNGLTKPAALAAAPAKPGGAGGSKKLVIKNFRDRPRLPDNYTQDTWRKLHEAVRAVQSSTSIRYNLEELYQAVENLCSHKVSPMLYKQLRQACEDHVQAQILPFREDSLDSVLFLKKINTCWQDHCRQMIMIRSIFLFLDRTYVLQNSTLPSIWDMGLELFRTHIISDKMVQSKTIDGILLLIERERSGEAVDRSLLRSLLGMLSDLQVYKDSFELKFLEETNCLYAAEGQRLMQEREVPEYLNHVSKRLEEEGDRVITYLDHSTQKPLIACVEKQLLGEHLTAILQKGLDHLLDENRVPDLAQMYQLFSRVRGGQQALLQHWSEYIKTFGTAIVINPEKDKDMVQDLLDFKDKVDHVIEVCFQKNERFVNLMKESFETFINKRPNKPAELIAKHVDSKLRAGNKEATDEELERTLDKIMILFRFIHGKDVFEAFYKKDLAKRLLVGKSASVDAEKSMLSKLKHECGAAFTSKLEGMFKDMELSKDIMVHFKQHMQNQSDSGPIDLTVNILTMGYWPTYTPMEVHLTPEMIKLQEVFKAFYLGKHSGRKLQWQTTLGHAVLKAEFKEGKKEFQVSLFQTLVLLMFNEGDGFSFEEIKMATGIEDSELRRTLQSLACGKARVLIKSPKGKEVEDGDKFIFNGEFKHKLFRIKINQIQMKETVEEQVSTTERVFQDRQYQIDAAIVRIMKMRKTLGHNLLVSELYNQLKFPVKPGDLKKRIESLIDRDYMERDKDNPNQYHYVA
UniProt Q13616, whole entry: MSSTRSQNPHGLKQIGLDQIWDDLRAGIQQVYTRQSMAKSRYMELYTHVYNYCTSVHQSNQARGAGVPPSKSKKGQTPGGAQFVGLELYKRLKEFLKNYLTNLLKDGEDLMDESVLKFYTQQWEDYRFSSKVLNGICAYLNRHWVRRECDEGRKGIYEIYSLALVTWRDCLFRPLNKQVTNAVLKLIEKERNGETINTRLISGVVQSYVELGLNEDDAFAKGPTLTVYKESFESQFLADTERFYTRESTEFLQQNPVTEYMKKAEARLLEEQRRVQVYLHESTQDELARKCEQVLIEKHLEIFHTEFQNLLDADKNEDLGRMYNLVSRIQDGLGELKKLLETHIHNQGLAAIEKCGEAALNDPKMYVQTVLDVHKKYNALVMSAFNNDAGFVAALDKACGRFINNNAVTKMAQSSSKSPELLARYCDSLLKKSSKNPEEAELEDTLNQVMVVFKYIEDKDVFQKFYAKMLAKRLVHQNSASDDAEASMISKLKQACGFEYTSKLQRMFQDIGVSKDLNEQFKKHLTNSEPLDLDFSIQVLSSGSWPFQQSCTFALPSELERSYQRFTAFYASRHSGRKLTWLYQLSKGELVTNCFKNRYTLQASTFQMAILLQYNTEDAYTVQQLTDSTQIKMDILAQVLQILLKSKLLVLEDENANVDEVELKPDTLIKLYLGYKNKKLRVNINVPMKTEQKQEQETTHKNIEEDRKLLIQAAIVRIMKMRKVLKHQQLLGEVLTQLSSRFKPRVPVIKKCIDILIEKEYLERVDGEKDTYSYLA
UniProt P62877, whole entry partner: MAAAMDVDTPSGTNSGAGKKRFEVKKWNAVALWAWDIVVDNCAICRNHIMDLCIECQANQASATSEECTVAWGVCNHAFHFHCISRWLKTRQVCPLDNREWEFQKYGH

Columns and labels:
[1] = target: E3 (CUL4) (Homo sapiens (Human), UniProt Q13619); test: E3 (CUL4) inhibition (Table 1); type: biochemical; details: tested form: disodium salt
[2] = tested on: cancer cells; test: Apoptosis, Annexin V flow cytometry; type: cell-based; details: Table 1; tested form: disodium salt
[3] = target: E3 (CUL1) (Homo sapiens (Human), UniProt Q13616); test: E3 (CUL1) inhibition (Table 1); type: biochemical; details: read-out: E3 (CUL1) Inhibition EC50; tested form: disodium salt

In the case of O=c1c(-c2cnn(-c3ccccc3)c2)c(C(F)(F)F)oc2c(O)c(O)ccc12 [#33-11, 7,8-dihydroxy-3-(1-phenyl-1H-pyrazol-4-yl)-2-(trifluoromethyl)-4H-chromen-4-one], the “E3 (CUL4) Inhibition EC50” value [1] is reported as “Inactive”, the “Apoptosis EC50” value [2] is reported as “Inactive” and the EC50 [3] is reported as 21 µM.
